Among the data in ChEMBL document CHEMBL5726084, “Substituted 2-azabicycles and their use as orexin receptor modulators” (2017) are Ki values, retold here.

This experiment can be described thus: Receptor Radioligand Binding Assay: Human Embryonic Kidney 293 cells (HEK293) stably expressing rat orexin 1 receptor (Genebank accession number NM_001525) or Chinese ovary cells (CHO) stably expressing human orexin 1 receptor (Genebank accession number NM_001526) were grown to confluency in DMEM (Hyclone, cat # SH30022), 10% FBS, 1× Pen/Strep, 1× sodium pyruvate, 10 mM HEPES, 600 μg/mL G418 and DMEM/F12 (Gibco, Cat #11039), 10% FBS, 1× Pen/Strep, 600 μg/mL G418 media, respectively on 150 cm2 tissue culture plates, washed with 5 mM EDTA in PBS (HyClone Dulbecco's Phosphate Buffered Saline 1× with Calcium and Magnesium, Cat # SH30264.01, hereafter referred to simply as PBS) and scraped into 50 ml tubes. After centrifugation (2K×G, 5 min at 4° C.), the supernatant was aspirated and the pellets frozen and stored at −80° C. Cells were resuspended in PBS in the presence of 1 tablet of protease inhibitor cocktail (Roche, Cat. #11836145001) per 50 mL. Each cell pellet from a 15 cm plate was resuspended in 10 mL, stored on ice, and homogenized for 45 sec prior to addition to the reactions. Competition binding experiments in 96 well polypropylene plates were performed using [3H] […].

Consider `CC1C2CC(Oc3ccc(C(F)(F)F)cn3)C(C2)N1C(=O)c1ccccc1-n1nccn1` (racemic), for which the Ki is greater than 10 µM.
